# Source: PubChem BioAssay AID588413 (Sanford-Burnham Center for Chemical Genomics, 2011)
# This is a selection; strong and weak results do not stand in their true shares. Activity calls are given as the source filed them.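 Rule for the calls: active = inhibition above about 55% (limit read from the data); inactive = the rest.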
# Assay: Gli-Sufu pathway antagonists, primary screen, luciferase luminescence, Sufu-KO-LIGHT cells, uHTS (AID 588413);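 note: 0% = DMSO-treated cells and 100% = wells with medium but no cells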
# Settings: Sufu-KO-LIGHT fibroblasts, Gli luciferase reporter luminescence; at 5 µM; active compounds read high
row,Structure (SMILES),inhibition
1,O=[As](O)(c1cccs1)c1cccs1,inactive: 4.14%
2,Nc1cccc([As](=O)(O)c2ccccc2)c1,inactive: -0.77%
3,CC1CCC(C(C)C)C(OP(=O)(Nc2ccccn2)c2ccccc2)C1 (stereo not given),inactive: 4.45%
4,Cc1ccc(C(=O)OC2CN3CCC2CC3)cc1 (stereo not given),inactive: 2.58%
5,Cc1nn(-c2ccccc2)c2c1P(=O)(N1CCOCC1)N(C)C(c1ccccc1)=N2 (stereo not given),inactive: 6.49%
6,CCCC1OP(=O)(Nc2ccccc2)OCC1CC (stereo not given),inactive: -3.67%
7,O=C(/C=C/c1ccccc1)OC1CN2CCC1CC2 (stereo not given),inactive: 24.5%
8,CN(C)C1(CNC(=O)c2ccc(S(C)(=O)=O)cc2)CCCCC1,inactive: 5.03%
9,COc1ccccc1CNC(=O)COC(=O)C(O)(c1ccccc1)c1ccccc1,inactive: -4.8%
10,CC1(CBr)Cn2c(nc3ccccc3c2=O)S1 (stereo not given),inactive: -104%
11,CC(C)/C=N\N=C(\N)N[N+](=O)[O-],inactive: -21.2%
12,CN(CCCl)Cc1cc(Cl)c(NC2=NCCN2)c(Cl)c1,inactive: 9.33%
13,CCOP(=O)(Nc1ccc(C)cn1)OCC,inactive: -5.53%
14,CCOP(=O)(NC(=NC(C)c1ccccc1)NC(C)c1ccccc1)OCC (stereo not given),inactive: 6.29%
15,O=P1(Nc2ccccn2)COc2ccccc2OC1,inactive: 27.4%
16,CCC1=CC2Cc3nc4ccc(Cl)cc4c(N)c3C(C1)C2 (stereo not given),inactive: 43.8%
17,CC(C)(C)C(=O)NC(Sc1ncccn1)C(Cl)(Cl)Cl (stereo not given),inactive: 6.99%
18,Clc1n[nH]nc1-c1nn[nH][15n]1,inactive: 4.7%
19,CC(C)C(=O)NC(Sc1ccccc1)C(Cl)(Cl)Cl (stereo not given),inactive: -4.83%
20,O=P(Nc1nccs1)(c1ccccc1)c1ccccc1,inactive: -36.7%
21,c1nnnn1CCn1cnnn1,inactive: -2.12%
22,O=[N+]([O-])c1ccc(O)c(/C=N/Nc2ccc([N+](=O)[O-])cc2[N+](=O)[O-])c1,inactive: 35.1%

row,Structure (SMILES),inhibition
1,CC(=O)NC(SC(=S)N(C)C)C(Cl)(Cl)Cl (stereo not given),active: 88.3%
2,O=[N+]([O-])c1ncn(CCn2cnc([N+](=O)[O-])n2)n1,inactive: -0.34%
3,O=[As](O)(c1ccccc1)c1ccc(O)cc1,inactive: -5%
4,Nc1ccc([As](=O)(O)c2ccc([N+](=O)[O-])cc2)cc1,inactive: -5.56%
5,C(Cc1nn[nH]n1)Cc1nn[nH]n1,inactive: -0.23%
6,O=C(OC1CN2CCC1CC2)c1cccc(Cl)c1 (stereo not given),inactive: 6.74%
7,COc1ccc(N)c([N+](=O)[O-])c1[N+](=O)[O-],inactive: 6.1%
8,O=P(Nc1ccccn1)(c1ccc(Br)cc1)c1ccc(Br)cc1,inactive: -1.73%
9,CN(C)C1(CNC(=O)c2ccc(Cl)c(S(N)(=O)=O)c2)CCCCC1,inactive: 16.2%
10,C[C@H]1OP(=O)(Oc2ccccc2)[C@H](O)[C@H](O)[C@H]1N=[N+]=[N-] (stereo not given in full),inactive: -4.25%
11,O=P(Nc1nc2ccccc2s1)(c1ccccc1)c1ccccc1,inactive: -2.37%
12,CC(=O)NC(SC(=S)N(CC(C)C)CC(C)C)C(Cl)(Cl)Cl (stereo not given),inactive: 11.2%
13,Cc1ccc(OP(=O)(Nc2ccccn2)Oc2ccc(C)cc2)cc1,inactive: 4.91%
14,COC(=O)c1cc2c(s1)N=C(c1ccccc1)N(C)P2(=O)N1CCOCC1 (stereo not given),inactive: 1.59%
15,CCC(=O)N1C2C3N(C(=O)CC)C1C1N(C(=O)CC)C(C(N1C(=O)CC)N3C(=O)CC)N2C(=O)CC,inactive: -24.7%
16,O=C(OC1CN2CCC1CC2)c1ccccc1 (stereo not given),inactive: 15.6%
17,CN(C)C(=O)Oc1noc2ccccc12,inactive: 2.82%
18,O=c1c2cc([N+](=O)[O-])ccc2[nH]c2c([N+](=O)[O-])cc([N+](=O)[O-])cc12,inactive: 26.4%
19,Cc1ccccc1OP(=O)(Nc1ccccn1)Oc1ccccc1C,inactive: -4.21%
20,CC(NC(=O)COC(=O)C(O)(c1ccccc1)c1ccccc1)c1ccccc1 (stereo not given),inactive: 4.38%
21,CCNC(=S)/N=C(\N)N[N+](=O)[O-],inactive: 0.08%
22,O=C(NC1CCS(=O)(=O)C1)NP(=S)(Oc1ccccc1)Oc1ccccc1 (stereo not given),inactive: 0.88%

row,Structure (SMILES),inhibition
1,Cc1ccc(NP(=O)(Oc2cccc(C)c2)Oc2cccc(C)c2)nc1,inactive: 5.89%
2,c1ccc(-c2nn[nH]n2)c(-c2nn[nH]n2)c1,inactive: -3.02%
3,O=P1(N(CCCl)CCCl)OCCC2CCCCN21 (stereo not given),inactive: 7.29%
4,COC(=O)C1(C)COP(=O)(NCc2ccccc2)OC1 (stereo not given),inactive: -16.3%
5,N#C/C(=C\c1ccc(N(CCBr)CCBr)cc1)C(N)=O,active: 75.1%
6,CC(=O)c1ccc(N2CC2c2ccncc2)cc1 (stereo not given),inactive: -25.4%
7,C[C@@H]1C=CCP(=O)(Oc2ccccc2)O1 (stereo not given in full),inactive: -5.73%
8,C[C@H]1OP(=O)(Oc2ccccc2)C[C@@H]2O[C@@H]21 (stereo not given in full),inactive: -5.99%
9,Cc1ccccc1CN(C)C(=O)COC(=O)C(O)(c1ccccc1)c1ccccc1,inactive: -5.22%
10,CC(=O)Nc1ccc(Oc2c([N+](=O)[O-])cc([N+](=O)[O-])cc2[N+](=O)[O-])cc1,inactive: -5.09%
11,CC(=O)Nc1ccc([As](=O)(O)O)c(O)c1,inactive: -0.49%
12,CCOc1ccc(C2=NCC(CBr)S2)cc1 (stereo not given),inactive: -8.45%
13,O=P1(Nc2nc3ccc(Cl)cc3s2)COc2ccccc2O1 (stereo not given),inactive: 16.9%
14,CCc1cc(O)c([N+](=O)[O-])c(C)c1[N+](=O)[O-],inactive: 1.21%
15,CC(C)(C)C(=O)NC(Sc1ccccc1)C(Cl)(Cl)Cl (stereo not given),inactive: -27.3%
16,CC(C)CC(=O)NC(Sc1ccc(Cl)cc1)C(Cl)(Cl)Cl (stereo not given),inactive: -0.43%
17,Nc1cc(N)c2nonc2c1[N+](=O)[O-],inactive: -8%
18,O=C(NC(Sc1ccncn1)C(Cl)(Cl)Cl)c1ccccc1 (stereo not given),inactive: 5.02%
19,Oc1ccccc1CNc1ccccn1,inactive: -4.93%
20,NC(=O)c1cc([N+](=O)[O-])cc([N+](=O)[O-])c1N,inactive: 0.63%
21,Cc1ccc(N/C(=N/P(=O)(N2CCOCC2)N2CCOCC2)N2CCOCC2)cc1,inactive: -4.99%
